For the series the following is noted: in ethanol, 298.15 K.

Each structure is given as a SMILES string.

In the case of `CS(=O)(=O)c1ccc([C@@H](O)[C@@H](CO)NC(=O)C(Cl)Cl)cc1`, the solubility (mole fraction) (commonly solubility expressed as the solute's share of all molecules) came out at 0.000438.

(Values after BigSolDB 2.1.)
